From PMC9770967, “Native holdup (nHU) to measure binding affinities from cell extracts” (Science Advances, 2022)

Tests used:
[1] = tested on: SNX27_PDZ; experiment: nHU-MS, SNX27_PDZ bait, total SH-SY5Y extracts; assay type: binding, human; settings: n = 6
Experimental: SNX27_PDZ (40-141) was cloned as His6-AviTag-MBP-TEV-SNX27_PDZ, and full-length SNX27 (1-541) was cloned as AviTag-MBP-SNX27-His6 construct in pET vectors. The empty His6-AviTag-MBP-TEV vector was used to produce biotinylated MBP for control experiments. Proteins were coexpressed with BirA biotin ligase (PET21a-BirA, Addgene, no. 20857) in Escherichia coli BL21(DE3) cells. At isopropyl-β-D-thiogalactopyranoside (IPTG) induction (1 mM IPTG at 18°C overnight), 50 μM biotin was added to the media. Harvested cells were lysed in a buffer containing 50 mM tris (pH 7.5), 150 to 300 mM NaCl, 50 μM biotin, 2 mM β-mercaptoethanol, cOmplete EDTA-free protease inhibitor cocktail (Roche, Basel, Switzerland), 1% Triton X-100, and trace amount of deoxyribonuclease, ribonuclease, and lysozyme. Lysates were frozen at −20°C before further purification steps. Lysates were sonicated and centrifuged for clarification. Expressed proteins were captured on in-house prepacked Ni-IDA (Protino Ni-IDA Resin, Macherey-Nagel, Duren, Germany) columns and were washed with at least 10 column volumes of cold wash buffer [50 mM tris (pH 7.5), 150 mM NaCl, and 2 mM β-mercaptoethanol] before elution with 250 mM imidazole. […] The concentration of proteins was determined by their ultraviolet absorption at 280 nm before aliquots were snap-frozen in liquid nitrogen and stored at −80°C. […]

[2] = tested on: SNX27_PDZ; experiment: AP-MS control pull-down on leftover resin, SNX27_PDZ bait, total SH-SY5Y extracts; assay type: binding, human; settings: n = 6
Experimental: Leftover beads from nHU-MS experiments were washed three times immediately after the separation of the supernatant [10 resin volume in buffer containing 50 mM tris (pH 8.5), 150 mM NaCl, 1% Triton X-100, 10× cOmplete EDTA-free protease inhibitor cocktail, 2 mM EDTA, and 1 mM TCEP]. Then, the beads were washed two times [10 resin volume buffer containing 50 mM tris (pH 8.5), 150 mM NaCl, and 1 mM TCEP]. Last, captured protein was eluted from the resin in two steps, and the eluted fractions were pooled. For each elution, the beads were incubated for 30 min with three resin volume buffer containing 20 mM tris (pH 8.5), 100 mM NaCl, 500 μM TCEP, and 8 M urea. Between each step, the beads were separated by mild centrifugation, and the supernatant was removed by gentle pipetting.
The nHU samples were precipitated with trichloroacetic acid (TCA) 20% overnight at 4°C and centrifuged at 14,000 rpm for 10 min at 4°C. The protein pellets were washed twice with 1 ml of cold acetone and air-dried. […]
Samples were analyzed using an Ultimate 3000 nano-RSLC coupled in line via a nano-electrospray ionization source, with an LTQ-Orbitrap ELITE mass spectrometer (Thermo Fisher Scientific, San Jose, CA) or with the Orbitrap Exploris 480 mass spectrometer (Thermo Fisher Scientific, Bremen, Germany) equipped with a high field asymmetric ion mobility spectrometry (FAIMS) module. […]

KARS1: Lysine--tRNA ligase
FC_HU (log2 fold change) [1]: -0.597 | Ratio_HU [1]: 0.6611 | FC_AP (log2 fold change) [2]: -0.9712 | Ratio_AP [2]: 0.5101
